Assay results published in publication PMC8338929, “Acetylation turns leucine into a drug by membrane transporter switching” (Scientific Reports, 2021).

Assays:
[1] = N-acetyl-leucine metabolism in pooled mouse liver S9 fraction (LC-MS); format: in vitro ADME; settings: mouse (CD1), 1.5 mg protein/mL, pH 7.4, 37 °C
[2] = N-acetyl-leucine metabolism in pooled human liver S9 fraction (LC-MS); format: in vitro ADME; settings: both sexes, 1.5 mg protein/mL, pH 7.4, 37 °C

A Km [1] of 69 µM and a Km [2] of 216 µM were found for `[2H]C([2H])([2H])C([2H])(C([2H])([2H])[2H])C([2H])([2H])C([2H])(NC(C)=O)C(=O)O` (racemic) [N-acetyl-DL-[^2H10]leucine] in this work.
